The text below walks through data of patent publication US10106557B2, “Preparation method for benzoxazoleoxazine ketone compound and intermediate and crystal form thereof” (NORTH CHINA PHARMACEUTICAL NEW DRUG R & D CO., LTD., priority 2014, dated 2018).

By UniProt entry, the sequences of proteins in these tests, tags left out. Residues count along the entry.
UniProt P00742, 41-179: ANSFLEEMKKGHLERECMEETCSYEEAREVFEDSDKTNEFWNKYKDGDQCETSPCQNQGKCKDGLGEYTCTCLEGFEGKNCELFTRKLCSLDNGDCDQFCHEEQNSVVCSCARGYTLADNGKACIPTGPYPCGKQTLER
UniProt P00742, 235-488: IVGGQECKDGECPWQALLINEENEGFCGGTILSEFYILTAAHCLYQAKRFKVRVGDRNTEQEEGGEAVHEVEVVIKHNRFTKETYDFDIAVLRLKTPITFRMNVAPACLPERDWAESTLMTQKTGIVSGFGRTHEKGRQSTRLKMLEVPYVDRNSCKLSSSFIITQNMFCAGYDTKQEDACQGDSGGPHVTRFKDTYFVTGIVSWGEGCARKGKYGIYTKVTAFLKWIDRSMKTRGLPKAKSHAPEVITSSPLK

pKi: −log10 of the molar value.

Experiment [1] addresses human coagulation factor Xa (Homo sapiens (Human), UniProt P00742). Description: Human coagulation factor Xa chromogenic assay. It counts as biochemical. To be noted: purified enzyme, substrate S-2222, 37° C.; Ki from IC50 by Cheng-Prusoff; read-out: hfXa Ki. The procedure:
The inhibitory ability of the compounds to be tested on Xa factor or other enzymes, such as thrombin or trypsin, in human or rats were determined by IC50 values, wherein the IC50 value was associated with the inhibition constant Ki. The purified enzyme was used in the chromogenic determination. The initial rate of hydrolysis of the chromogenic substrate was determined by the variation of absorbance at 405 nm in the linear part on time (usually 2 to 10 minutes after the addition of the substrate) at 37° C. by using FlexStation III (USA Molecular Instruments). By plotting a curve regarding the relative velocity of the hydrolysis (compared to the control group which was free of inhibition) on the logarithm of the concentration of the compounds and linear regression calculation, the concentration of the inhibitor leading to a 50% reduction of the rate of the hydrolysis of the substrate was determined. The enzyme inhibition constant (Ki) was calculated according to Cheng-Prusoff equation: Ki=IC50/(1+[S]/Km), where [S] was the substrate concentration and Km was the meter-Mann's constant determined by the double reciprocal mapping method. The IC50 values of the compounds were obtained by GraphPad Prism software. […]
The inhibitory activity on coagulation factor Xa activity in human or rats was measured by using Tris-HCl buffer (50 mM, pH 8.3, 150 mM NaCl). […]

A further experiment has as its target prothrombinase (Homo sapiens (Human), UniProt P00742). Description: Prothrombin assay (prothrombinase, thrombin production). Type of experiment: biochemical. To be noted: human factor Xa, human blood platelets, substrate S-2238. The procedure: The inhibitory ability of the compounds to be tested on Xa factor or other enzymes, such as thrombin or trypsin, in human or rats were determined by IC50 values, wherein the IC50 value was associated with the inhibition constant Ki. The purified enzyme was used in the chromogenic determination. The initial rate of hydrolysis of the chromogenic substrate was determined by the variation of absorbance at 405 nm in the linear part on time (usually 2 to 10 minutes after the addition of the substrate) at 37° C. by using FlexStation III (USA Molecular Instruments). By plotting a curve regarding the relative velocity of the hydrolysis (compared to the control group which was free of inhibition) on the logarithm of the concentration of the compounds and linear regression calculation, the concentration of the inhibitor leading to a 50% reduction of the rate of the hydrolysis of the substrate was determined. The enzyme inhibition constant (Ki) was calculated according to Cheng-Prusoff equation: Ki=IC50/(1+[S]/Km), where [S] was the substrate concentration and Km was the meter-Mann's constant determined by the double reciprocal mapping method. The IC50 values of the compounds were obtained by GraphPad Prism software. The curve is fitted by using the “shaped dose effect (variable slope)”.
The activity of the compound to be tested against prothrombinase was determined by the production of thrombin. […]

What is called pKi is the negative decadic logarithm of the Ki, by convention in mol/L. `O=C(NC[C@@H]1OC(=O)N2c3ccc(N4CCCCC4=O)cc3OC[C@@H]12)c1ccc(Cl)s1` [Compound 2]: the pKi is 8.71 in experiment [1] and 8.37 at prothrombinase.
